Tested on: human colon adenocarcinoma cell line Caco-2
Experiment: Test on tight junction formation (electric resistance)
Details: 2 μg/ml in serum-free Cosmedium 001; 1st, 4th and 7th days of culture; FIG. 1

Substance | electric resistance (R) value
Ganglioside GM3 [reference compound] | increased
sphingomyelin | increased
